For the assay, the system named is NCI-H322M. The assay is described as follows: SRB growth screen, non-small cell lung cancer NCI-H322M. Particulars: 48 h.

For `CC(=O)O[C@H]1C(=O)[C@@]2(C)[C@H]([C@H](OC(=O)c3ccccc3)[C@]3(O)C[C@H](OC(=O)[C@H](O)[C@@H](NC(=O)C4(C)OC4C)c4ccccc4)C(C)=C1C3(C)C)[C@]1(OC(C)=O)CO[C@@H]1C[C@@H]2O` (stereo partly shown) [Ceph-epoxide, cephalomannine epoxide], the “Log10 TGI” value is on record as above -4.00 log10 M.

(Values after patent US5892063A (Hauser, Inc., priority 1997, dated 1999).)
